From PubChem BioAssay AID2380 (Sanford-Burnham Center for Chemical Genomics, 2010)
The entries are a selection whose mix differs from that of the whole data set. Some salts and complexes are drawn in separate pieces, as the source files them; their charges need not balance. Activity calls are given as the source filed them.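 Rule for the calls: active = compounds whose signal lies at least 3.5 SD above the mean of all wells on their plate; inactive = the rest.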

Test: small molecules increasing insulinoma cell replication – ATP luminescence, uHTS, primary screen (AID 2380);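 note: 0% = DMSO-treated cells in low-serum medium and 100% = 10% serum control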
Settings: MIN6 cells proliferation, ATPlite luminescence, 48 h; at 10 µM; active compounds read high; 100% = growth in 10% serum; cells starved in 0.2% serum

| Structure (SMILES) | proliferation |
| --- | --- |
| Cc1nc2ccc3ccccc3c2o1.O=[N+]([O-])c1cc([N+](=O)[O-])c(O)c([N+](=O)[O-])c1 | inactive: -5.82% |
| COc1ccccc1OP(C)(=O)Nc1ccc(C)c(C)c1 (stereo unspecified) | inactive: -1.79% |
| COc1ccc(OP(C)(=O)Nc2ccccc2Br)cc1 (stereo unspecified) | inactive: -0.13% |
| Cc1cc(C)cc(OP(C)(=O)Nc2cccc(C(F)(F)F)c2)c1 (stereo unspecified) | inactive: 1.3% |
| CP(=O)(Nc1ccccn1)Oc1ccccc1 (stereo unspecified) | inactive: -0.17% |
| COc1ccccc1OP(C)(=O)Nc1ccc(C)cc1C (stereo unspecified) | inactive: -2.88% |
| CCc1ccc(OP(C)(=O)O)cc1 | inactive: 0.56% |
| O=[N+]([O-])c1cc([N+](=O)[O-])c(Nc2ccccn2)c([N+](=O)[O-])c1 | inactive: -5.5% |
| Cc1c(NP(C)(=O)Oc2ccc(C(C)C)cc2)c(=O)n(-c2ccccc2)n1C (stereo unspecified) | inactive: 0.67% |
| COc1ccc(OP(C)(=O)Nc2ccccn2)cc1 (stereo unspecified) | inactive: -2.46% |
| CN(C)CCOC(=O)C(O)(c1ccccc1)C1CCCC1 (stereo unspecified) | inactive: 0.25% |
| COc1ccccc1OP(C)(=O)Nc1ccc(Br)cc1 (stereo unspecified) | inactive: 0.53% |
| COc1ccc2c(c1O)-c1c(O)c(OC)cc3c1[C@H](C2)[N+](C)(C)CC3.O=[N+]([O-])c1cc([N+](=O)[O-])c([O-])c([N+](=O)[O-])c1[O-] | inactive: 5.87% |
| O=C(OC1CN2CCC1CC2)c1ccc([N+](=O)[O-])cc1 (stereo unspecified) | inactive: -1.31% |
| O=C(OCCN1CCN(CCOCc2ccccc2)CC1)C(O)(c1ccccc1)c1ccccc1 | inactive: 0% |
| CP(=O)(Nc1ccccc1F)Oc1ccccc1 (stereo unspecified) | inactive: -1.48% |

| Structure (SMILES) | proliferation |
| --- | --- |
| CC(C)c1ccc(OP(C)(=O)Nc2ccc(SC(F)(F)F)cc2)cc1 (stereo unspecified) | inactive: 0% |
| CP(=O)(Nc1ccccc1)Oc1ccc(F)cc1 (stereo unspecified) | inactive: -0.93% |
| CCCCCOc1ccc(NP(C)(=O)Oc2ccc(Cl)cc2Cl)cc1 (stereo unspecified) | inactive: -6.38% |
| O=[N+]([O-])c1cc([N+](=O)[O-])c(OC2CCCCC2O)c([N+](=O)[O-])c1 (stereo unspecified) | inactive: 0.26% |
| CCN(CC)CCCOC(=O)C(O)(c1ccccc1)C1CCCCC1 (stereo unspecified) | inactive: 0.17% |
| CCOC(=O)c1ccc(NP(C)(=O)Oc2ccc(F)cc2)cc1 (stereo unspecified) | inactive: 1% |
| COc1ccc(OP(C)(=O)Nc2ccc(SC(F)(F)F)cc2)cc1 (stereo unspecified) | inactive: -3.83% |
| O=[N+]([O-])c1cc([N+](=O)[O-])c(NCC2CCS(=O)(=O)C2)c([N+](=O)[O-])c1 (stereo unspecified) | inactive: -0.93% |
| CN(C)CCOC(=O)C(O)(c1ccccc1)C1CCCCC1 (stereo unspecified) | inactive: -1.63% |
| COc1ccc(NP(C)(=O)Oc2ccccc2OC)cc1 (stereo unspecified) | inactive: 0.05% |
| COc1ccc(OP(C)(=O)Nc2cccc(Br)c2)cc1 (stereo unspecified) | inactive: -2.87% |
| Cc1ccccc1NP(C)(=O)Nc1ccccc1C | inactive: -0.98% |
| CP(=O)(Nc1ccc2c(c1)OCCO2)Oc1ccccc1 (stereo unspecified) | inactive: -2.09% |
| CCOP(C)(=S)SCC(=O)NC(C)(CC)C(=O)O (stereo unspecified) | inactive: 1.16% |
| CP(=O)(Nc1ccc(SC(F)(F)F)cc1)Oc1ccc(F)cc1 (stereo unspecified) | inactive: 2.61% |
